The test concerns C6 glioblastoma cells. Nature of the test: C6 glioblastoma cells inoculated in rat brain; survival and magnetic resonance. The test is classed as in vivo, Wistar rats. An excerpt:
The injection of C6 glioblastoma cells in a rat brain is widely used as an experimental model for a malign brain tumor (Barth, R. F., J. Neurooncol. 36, 91-102, 1998). C6 glioblastoma cells were directly inoculated in the brain of Wistar rats and the tumors viewed by magnetic resonance. All animals left untreated died uniformly 12-18 days after inoculation with the cells (FIG. 3a). To evaluate the antitumoral potential of the cannabinoids, 12 days after inoculating the cells a group of animals was administered THC or WIN-55, 212-2 for 7 days through a cannula located at the site of inoculation. […] Thus, administration of cannabinoids managed to increase the survival time to 19-35 days in 9/15 of animals (treatment with THC) or to 19-43 days in 4/15 of animals (treatment with WIN-55, 212-2). Moreover, cannabinoids managed to completely eradicate the tumor in 3/15 of animals(treatment with THC) or 5/15 of animals (treatment with WIN-55, 212-2).
Male Wistar rats (250-300 g in body mass) were anaesthetized with 3% isofluorane in an oxygen mixture (0.8 l/min) and protoxide (0.4 l/min). 5×10^8 C6 glioblastoma cells were prepared in 100 μl of saline solution buffered with phosphate (PBS) and supplemented with 0.1% glucose, and stereotaxically injected in the frontal parietal lobule of the right hemisphere (4 mm to the right of bregma, 4.5 mm depth from the cranium) (Izquierdo, M et al., Gene Ther. 2, 66-69, 1995). The rats received dexamethasone (2 mg/l) and tetracycline (75 mg/kg of body weight) in water for 3 days before and 7 days after inoculation of the cells. A thorough monitoring of the tumors was performed by magnetic resonance with the methods described by other authors (Izquierdo, M et al., op cit; Cortés, M. L., de Felipe, P., Martin, V. Hughes, M. A. & Izquierdo, M. Gene Ther. 5, 1499-1507, 1998).
The administration of cannabinoids to rats began 12 days after inoculation of the cells. At this time the average size of the tumors was 70 mm^3 (interval 25-100 mm^3) as estimated by magnetic resonance (Izquierdo, M et al., op cit; Cortés, de Felipe, Martin, Hughes & Izquierdo, M, op cit.). Cannabinoids were administered by a cannula placed at the place of inoculation of the tumor and attached to the cranium by dental cement; a small stainless steel screw anchored the cannula and the dental cement. The cannula was subcutaneously connected by a catheter to an osmotic mini-pump (Alzet 2001) which operated at a flow of 1 μl/h for 7 days. The osmotic pump was filled with 500-2500 μg of THC or 50-250 μg of WIN-55,212-2 in 200 μl of PBS supplemented with 5 mg/l of bovine serum albumin (BSA), delipidized and dialyzed. The dose of cannabinoid employed depended on the characteristics of the tumor to be treated. Greater doses were used for large, dense and invasive tumors.

Setting [1] is: fraction of treated animals, 7 days through cannula from day 12.

“Also recorded” adds a separate entry of the source.

For `CCCCCc1cc(O)c2c(c1)OC(C)(C)[C@@H]1CCC(C)=C[C@@H]21` [THC, Δ^9-tetrahydrocannabinol], the “tumoral mass after treatment, magnetic resonance image of one rat” value (100 mm^3 glioblastoma, 500 μg of THC, image 7 days after ending treatment) is “disappeared completely; also recorded: eradicated”. Where the note is “days after inoculation, in the responding animals, cannabinoid for 7 days through cannula at site of inoculation from day 12, untreated died 12-18 days”, this molecule showed a survival time of 19 to 35 days. Further, under setting [1], the “animals with increased survival time” value is 9/15 and the “animals with tumor completely eradicated” value is 3/15.

For the origin of these results see patent US20040039048A1, “Therapy with cannabinoid compounds for the treatment of brain tumors” (priority 2000, published 2004).
